Measured values reported in patent US10465009B2, “BCMA antigen binding proteins” (Amgen Inc., priority 2012, dated 2019).

T1: BCMA (Homo sapiens, UniProt Q02223, N81S)
T1 construct: cells transiently transfected to express full length BCMA, TACI, or BAFF-R; expressed in transfected cells
T1 sequence (Q02223 1-184 N81S): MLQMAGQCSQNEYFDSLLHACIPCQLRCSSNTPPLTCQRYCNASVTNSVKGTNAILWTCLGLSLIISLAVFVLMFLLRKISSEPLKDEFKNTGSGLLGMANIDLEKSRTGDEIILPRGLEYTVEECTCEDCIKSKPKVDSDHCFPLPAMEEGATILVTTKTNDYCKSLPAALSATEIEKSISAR


Columns and labels:
BCMA = biological target: T1, BCMA; experiment: FACS binding on cells transiently transfected to express full length BCMA; conditions: MFI vs negative control
Protocol: An important criterion is exquisite selectivity for wild-type human BCMA expressed on the surface of cells. FACS binding on cells transiently transfected to express full length BCMA, TACI, or BAFF-R was performed using standard techniques. Approximately 40×10^6 of the transiently-transfected target cells were resuspended in a staining solution (2% goat serum, 1% rabbit serum, 0.02% azide in PBS) and aliquoted into round-bottom, 96-well plate (Corning Incorp., Acton, Mass.) as per the experiment design. The cells were incubated at 4 degrees celsius for 30 minutes to block non-specific sites. The antibodies were titrated into the staining solution. The cells were rinsed in a rinse solution (PBS+0.02% azide) by resuspending the cells in 200 ul/well. The cells were centrifuged at 1500 rpm at 4 degrees celsius for 7 minutes. The rinse solution was removed and the rinse step was repeated. The cells were resuspended in the appropriate antibody solution (see the matrix in TABLE 4) at 30 ul/well and incubated at 4 degrees celsius for 30 minutes. […] For the mouse IgG1 negative control and the two mouse antibodies (1.183 and 1.288), the secondary reagent was an anti-mouse IgG-PE conjugate (BD Pharmingen Cat. 550589). The cells/antibodies were rinsed as described above to remove excess/unbound antibody. […] Samples were read at 532 nm wavelength on FACS. […]

KMS34 = experiment: CellTiter-Glo Luminescent Cell Viability Assay, KMS34; format: cell-based, human
Protocol: The ADCs were tested for the ability to target and kill BCMA-expressing myeloma cells. The CellTiter-Glo® Luminescent Cell Viability Assay is a homogeneous method to determine the number of viable cells in culture based on quantitation of the ATP present, which signals the presence of metabolically active cells. The CellTiter-Glo® Assay is applicable to cytotoxicity assays (see http://www.promega.com/products/cell-health-assays/cell-viability-assays/celltiterglo-luminescent-cell-viability-assay/ for more information). The cell viability assay was used to assess the relative killing capacity of various ADCs on various multiple myeloma cell lines and B-cell lines. […] Luminescence was read on an EnVision™ Multilabel reader (PerkinElmer) or Analyst HT plate reader (LJL Biosciences). The data was analyzed and graphed using GraphPad Prism™ to determine the relative efficacy of the ADCs on various cancer cell lines.
The 2A1CV5-MCC-DM1, 32B5-MCC-DM1 and 29C12-MCC-DM1 ADCs were tested for the ability to target and kill BCMA-expressing myeloma cells (H929). The CellTiter-Glo® Luminescent Cell Viability Assay is a homogeneous method to determine the number of viable cells in culture based on quantitation of the ATP present, which signals the presence of metabolically active cells. […] Luminescence was read on an EnVision™ Multilabel reader (PerkinElmer) or Analyst HT plate reader (LJL Biosciences). […]

Molecule | BCMA (FACS binding) (BCMA) | Cell line killed by BCMA ADC (KMS34)
2A1: parental fully human anti-huBCMA mAb, Vh SEQ ID NO:214, Vl SEQ ID NO:248; heavy chain SEQ ID NO:287, light chain 288 (antibody) heavy: EVQLVESGGGLVKPGRSLRLSCTASGFTFGDYALSWFRQAPGKGLEWVGVSRSKAYGGTTDYAASVKGRFTISRDDSKSFAYLQMNSLKTEDTAVYYCCSSGYSSGWTPFDYWGQGTLVTVSSASTKGPSVFPLAPSSKSTSGGTAALGCLVKDYFPEPVTVSWNSGALTSGVHTFPAVLQSSGLYSLSSVVTVPSSSLGTQTYICNVNHKPSNTKVDKKV[omitted - human IgG1 Fc] light: QSVLTQPPSASGTPGQRVTISCSGSSSNIGSNTVNWYQQLPGTAPKLLIFNYHQRPSGVPDRFSGSKSGSSASLAISGLQSEDEADYYCAAWDDSLNGWVFGGGTELTVLGQPKAAPSVTLFPPSSEELQANKATLVCLISDFYPGAVTVAWKADSSPVKAGVETTTPSKQSNNKYAASSYLSLTPEQWKSHRSYSCQVTHEGSTVEKTVAPTECS | + (A sample was considered positive for binding if the MFI was two times the negative control value) | 
2A1CV5-MCC-DM1 (conjugate) heavy: EVQLVESGGGLVKPGGSLRLSCAASGFTFGDYALSWFRQAPGKGLEWVGVSRSKAYGGTTDYAASVKGRFTISRDDSKSTAYLQMNSLKTEDTAVYYCASSGYSSGWTPFDYWGQGTLVTVSSASTKGPSVFPLAPSSKSTSGGTAALGCLVKDYFPEPVTVSWNSGALTSGVHTFPAVLQSSGLYSLSSVVTVPSSSLGTQTYICNVNHKPSNTKVDKKV[omitted - human IgG1 Fc] light: QSVLTQPPSASGTPGQRVTISCSGSSSNIGSNTVNWYQQLPGTAPKLLIFNYHQRPSGVPDRFSGSKSGSSASLAISGLQSEDEADYYCAAWDDSLNGWVFGGGTKLTVLGQPKAAPSVTLFPPSSEELQANKATLVCLISDFYPGAVTVAWKADSSPVKAGVETTTPSKQSNNKYAASSYLSLTPEQWKSHRSYSCQVTHEGSTVEKTVAPTECS |  | Yes
